{
  "source": "patent US20030170893A1",
  "about": "“NANOCAPSULE ENCAPSULATION SYSTEM AND METHOD” (Genesegues, Inc., priority 2000, published 2003)",
  "test_system": "Rt-1 fibroblast cultures",
  "details": "rat, 8 hr, 1 μg/ml",
  "data": [
    {"compound": "COc1cc([C@@H]2c3cc4c(cc3[C@@H](O[C@@H]3O[C@@H]5CO[C@@H](C)O[C@H]5[C@H](O)[C@H]3O)[C@H]3COC(=O)[C@H]23)OCO4)cc(OC)c1O", "note": "[etoposide]", "values": [
      {"measurement": "Fragmentation Index, cytotoxicity control", "result": "hr): 25 ± 10%) (Pei-"}
    ]}
  ]
}
